{"source": "paper PMC8001558", "about": "(Viruses, 2021)", "molecular_target": "GII.10 Vietnam 026 VLPs (Norwalk virus (human norovirus GII.10), UniProt Q5F4T5)", "test": "biochemical", "conditions": "STD NMR at 277 K", "data": [{"smiles": "C[C@@H]1O[C@@H](O[C@@H]2[C@@H](O[C@H]3O[C@H](CO)[C@H](O)[C@H](O)[C@H]3O)[C@@H](O)[C@@H](CO)O[C@@H]2N=[N+]=[N-])[C@@H](O)[C@H](O)[C@@H]1O", "note": "[B-Tri 3, blood group B trisaccharide (azido group at the anomeric position)]", "values": [{"measurement": "Kd", "setting": "PBS pH* 7.20, absence of GCDCA", "result": "7.9 ± 0.7", "unit": "mM"}, {"measurement": "Kd", "setting": "PBS pH* 7.20, with saturating amounts of GCDCA (1 mM)", "result": "9 ± 1", "unit": "mM"}]}]}
